Results reported in PubChem BioAssay AID760 (NMMLSC, 2007).
The campaign covered roughly 190,000 compounds. About 360 (0.19%) were called active. Listed are the inconclusive results; actives and inactives stand elsewhere.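 How the source made its calls: active means GTP binding activity at least 20 points away from 100%, either lowered or raised; inconclusive means signal likely due to the compound's own green fluorescence; inactive means the rest.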

Each molecule was assayed against Ras-related protein Rab-2A (Canis lupus familiaris) (UniProt P61105) (assay: modulators of GTP binding to Rab2A wildtype, primary screen, biochemical, dog, bead-based flow cytometry, multiplex (AID 760;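 further: 0% = beads with excess unlabeled GTP and 100% = no-compound control corrected for plate trend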)). Conditions: GST-Rab2 wt beads, Bodipy-GTP binding, at 10 µM.
`O=C(OC1CN2CCC1CC2)C12CC3CC(CC(C3)C1)C2` (stereo not drawn) was tested, and the GTP binding activity was inconclusive: 102%.
In the case of `COc1ccccc1OP(=O)(Nc1ccc(C)cn1)Oc1ccccc1OC`, the GTP binding activity is reported as inconclusive: 91%.
`CC(C)=N/N=C(\N)N[N+](=O)[O-]` was tested, and the GTP binding activity was inconclusive: 97%.
